# Test results: patent US4053604A (priority 1975, dated 1977)
# Assay: double-blind cross-over neuroleptanesthesia study in dogs (neuroleptic, fentanyl, nitrous oxide-oxygen)
# Conditions: for Average Score Neuroleptanesthesia, Average / Extubation Time, Average / Intubation Time, Average / Duration of Anesthesia Time, Average: average of dogs; for Average Score Neuroleptanesthesia, Average: higher score = better; for Average Score Neuroleptanesthesia, Average / Duration of Anesthesia Time, Average: neuroleptic 200 μg/kg i.v.; for Extubation Time, Average / Intubation Time, Average: neuroleptic 200 μg/kg i.v. + fentanyl + N2O-O2; for Duration of Anesthesia Time, Average: time animals regained righting reflex
# [1] = versus droperidol (FIGS. 4 and 5), in words
compound,measurement,setting,value
CC(C)[C@@]1(O)CCN2C[C@@H]3c4ccccc4CCc4cccc(c43)[C@H]2C1 [listing 1 of 2 here],Changes in pulse rate,[1],not statistically different
same,Changes in rectal temperature,[1],not statistically different
same,Changes in respiratory rate,[1],not statistically different
"O=C(CCCN1CC=C(n2c(=O)[nH]c3ccccc32)CC1)c1ccc(F)cc1 [droperidol, reference compound]","Average Score Neuroleptanesthesia, Average",,3.3
same,"Extubation Time, Average",,78.6 min
same,"Intubation Time, Average",,20.21 min
same,"Duration of Anesthesia Time, Average",,79.5 min
CC(C)[C@@]1(O)CCN2C[C@@H]3c4ccccc4CCc4cccc(c43)[C@H]2C1 [listing 2 of 2 here],effectiveness in inducing neurolepsy and in supplementing nitrous oxide anesthesia,"200 μg/kg intravenously, versus droperidol at the same dose, in words",as effective as droperidol
same,"Average Score Neuroleptanesthesia, Average",,3.2
same,"Extubation Time, Average",,77.0 min
same,"Intubation Time, Average",,20.57 min
same,"Duration of Anesthesia Time, Average",,78.0 min
